The values that follow are results of earlier work, collected in publication PMC8373167 (Advanced Science, 2021).

Each structure is given as a SMILES string.

The conditions of this series: in vivo; cited from earlier work.

Turning to `OC[C@H]1OC(O)[C@H](F)[C@@H](O)[C@@H]1O` (stereo partly shown) [^18F‐FDG, ^18F‐Fluorodeoxyglucose], the whole-body effective dose is given as 0.019 mSv MBq^−1.
